Patent US8664179B2, “Identification of novel antagonist toxins of T-type calcium channel for analgesic purposes” (Centre National de la Recherche Scientifique (CNRS), priority 2009, dated 2014)

By UniProt entry, the sequences of proteins in these tests, tags left out. Where a name states a change or a piece, a line headed by the entry shows the natural chain unless it says otherwise.
UniProt O95180: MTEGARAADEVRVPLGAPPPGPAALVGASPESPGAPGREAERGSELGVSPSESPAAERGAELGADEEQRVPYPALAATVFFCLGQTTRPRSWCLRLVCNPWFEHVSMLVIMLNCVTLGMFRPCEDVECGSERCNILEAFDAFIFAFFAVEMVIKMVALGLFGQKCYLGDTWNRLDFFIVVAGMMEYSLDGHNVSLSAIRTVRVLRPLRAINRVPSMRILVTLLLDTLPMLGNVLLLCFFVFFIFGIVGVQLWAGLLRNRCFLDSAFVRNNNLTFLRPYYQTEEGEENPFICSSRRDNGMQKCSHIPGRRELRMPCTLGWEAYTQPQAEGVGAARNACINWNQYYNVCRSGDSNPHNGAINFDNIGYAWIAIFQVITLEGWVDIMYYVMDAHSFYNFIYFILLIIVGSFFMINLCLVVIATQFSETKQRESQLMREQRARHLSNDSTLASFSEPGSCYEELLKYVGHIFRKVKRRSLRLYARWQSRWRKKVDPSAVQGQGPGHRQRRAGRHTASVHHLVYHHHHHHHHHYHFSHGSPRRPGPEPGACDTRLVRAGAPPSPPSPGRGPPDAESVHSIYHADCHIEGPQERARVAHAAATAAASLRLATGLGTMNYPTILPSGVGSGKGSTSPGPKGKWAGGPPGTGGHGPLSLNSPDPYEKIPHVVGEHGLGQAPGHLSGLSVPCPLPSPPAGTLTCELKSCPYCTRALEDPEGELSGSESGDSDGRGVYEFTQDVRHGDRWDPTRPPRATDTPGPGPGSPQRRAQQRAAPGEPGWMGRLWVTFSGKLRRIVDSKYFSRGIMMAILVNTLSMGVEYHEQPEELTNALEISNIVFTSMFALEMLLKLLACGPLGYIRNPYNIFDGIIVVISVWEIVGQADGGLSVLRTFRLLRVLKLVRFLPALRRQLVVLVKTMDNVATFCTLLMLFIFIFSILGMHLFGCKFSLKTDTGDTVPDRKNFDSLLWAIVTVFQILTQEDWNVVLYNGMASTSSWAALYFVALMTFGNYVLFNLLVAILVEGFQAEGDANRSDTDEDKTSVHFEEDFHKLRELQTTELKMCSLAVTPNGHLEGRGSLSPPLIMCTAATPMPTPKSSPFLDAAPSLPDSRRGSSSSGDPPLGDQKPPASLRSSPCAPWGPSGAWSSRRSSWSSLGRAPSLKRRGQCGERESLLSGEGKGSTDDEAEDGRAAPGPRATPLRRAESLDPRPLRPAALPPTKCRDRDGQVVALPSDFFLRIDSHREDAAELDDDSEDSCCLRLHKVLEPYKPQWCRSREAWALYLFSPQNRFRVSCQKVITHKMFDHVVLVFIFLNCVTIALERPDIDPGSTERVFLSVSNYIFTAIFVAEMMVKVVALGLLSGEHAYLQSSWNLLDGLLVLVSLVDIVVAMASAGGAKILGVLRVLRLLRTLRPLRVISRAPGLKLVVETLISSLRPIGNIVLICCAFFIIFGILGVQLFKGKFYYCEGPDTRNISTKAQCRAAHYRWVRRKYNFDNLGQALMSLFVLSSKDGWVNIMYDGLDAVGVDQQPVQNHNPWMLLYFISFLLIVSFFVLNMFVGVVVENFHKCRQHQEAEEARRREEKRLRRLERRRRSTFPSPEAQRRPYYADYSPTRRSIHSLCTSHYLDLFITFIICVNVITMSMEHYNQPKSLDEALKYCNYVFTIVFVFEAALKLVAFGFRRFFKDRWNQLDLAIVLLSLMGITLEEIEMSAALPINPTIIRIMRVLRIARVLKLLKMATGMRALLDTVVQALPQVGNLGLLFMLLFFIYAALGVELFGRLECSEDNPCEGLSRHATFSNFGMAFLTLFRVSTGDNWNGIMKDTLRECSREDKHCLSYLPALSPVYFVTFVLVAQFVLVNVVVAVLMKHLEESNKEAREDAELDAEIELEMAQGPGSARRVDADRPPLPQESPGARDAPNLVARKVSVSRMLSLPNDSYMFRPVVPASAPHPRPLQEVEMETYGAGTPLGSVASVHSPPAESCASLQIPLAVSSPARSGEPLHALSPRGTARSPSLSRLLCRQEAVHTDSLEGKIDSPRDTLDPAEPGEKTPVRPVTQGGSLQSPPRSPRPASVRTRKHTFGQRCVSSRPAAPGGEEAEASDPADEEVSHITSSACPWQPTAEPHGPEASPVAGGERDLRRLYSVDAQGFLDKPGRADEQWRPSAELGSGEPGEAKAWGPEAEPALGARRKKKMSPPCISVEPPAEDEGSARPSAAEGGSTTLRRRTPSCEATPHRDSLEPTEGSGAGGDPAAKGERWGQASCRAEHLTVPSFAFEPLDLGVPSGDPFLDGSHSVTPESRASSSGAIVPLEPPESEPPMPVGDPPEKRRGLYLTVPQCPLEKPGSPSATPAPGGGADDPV

Target: T1, human Cav3.2 (Homo sapiens, UniProt O95180)
T1 construct: expressed in transfected cells; host or cells: Xenopus laevis oocytes (cDNA injection)
Experiment: Double microelectrode imposed-voltage recording of CaV3.2 current in Xenopus oocytes
Format: cell-based
Details: FIG. 4, CaV3.2 currents before and during application

## CC[C@H](C)[C@H](NC(=O)[C@H](CCCCN)NC(=O)[C@@H]1CSSC[C@@H]2NC(=O)[C@@H]3CCCN3C(=O)[C@H](CCCNC(=N)N)NC(=O)[C@H](CCC(=O)O)NC(=O)[C@H](CO)NC(=O)[C@H](CC(=O)O)NC(=O)[C@@H]3CSSC[C@H](NC(=O)[C@H](C(C)C)NC(=O)[C@H](CC(C)C)NC(=O)CNC(=O)[C@H](CCC(=O)O)NC(=O)[C@H](CSSC[C@H](NC(=O)[C@@H](N)Cc4ccc(O)cc4)C(=O)N[C@@H](CCC(N)=O)C(=O)N[C@@H](CCCCN)C(=O)N[C@@H](Cc4ccccc4)C(=O)N[C@@H](CC(C)C)C(=O)N[C@@H](Cc4c[nH]c5ccccc45)C(=O)N[C@@H]([C@@H](C)O)C(=O)N3)NC2=O)C(=O)N[C@@H](CCCNC(=N)N)C(=O)N[C@@H](CC(C)C)C(=O)N[C@@H](Cc2c[nH]c3ccccc23)C(=O)N1)C(=O)N[C@@H](CC(N)=O)C(=O)O [natural toxin]
  shift of the current-voltage relation toward the positive voltages: about 20 mV
